Reference: patent US8518945B2, “Pyrrolopyrazine kinase inhibitors” (Hoffmann-La Roche Inc., priority 2010, dated 2013)

Sequences of proteins named here, by UniProt entry; tags and fusion partners are left off. Residues count along the entry.
UniProt P52333, 810-1124: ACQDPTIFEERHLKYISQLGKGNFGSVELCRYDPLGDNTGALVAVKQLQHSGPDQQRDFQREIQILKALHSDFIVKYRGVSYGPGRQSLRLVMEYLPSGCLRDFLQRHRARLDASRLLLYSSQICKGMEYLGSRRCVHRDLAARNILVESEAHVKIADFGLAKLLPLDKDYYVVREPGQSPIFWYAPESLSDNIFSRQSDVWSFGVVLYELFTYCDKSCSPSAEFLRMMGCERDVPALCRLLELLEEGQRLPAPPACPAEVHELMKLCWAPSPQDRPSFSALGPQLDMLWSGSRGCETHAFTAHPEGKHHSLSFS

Target: T1, h-jak3(810-1124) (JAK3: Recombinant human kinase domain) (Homo sapiens, UniProt P52333)
T1 construct: jak3(810- 1124)-sf9-c; made in house; host or cells: Sf9
Experiment: Determination of IC50 of Janus Kinase (JAK) inhibition: JAK3 radioactive end-point 33P-ATP kinase assay
Type: biochemical
Details: no additive; ATP 1.5 uM, peptide 50 uM, 20 minutes, room temperature; read-out: Ic50 h-jak3(810-1124)-sf9-c: no additive

| SMILES | IC50 [µM] |
| --- | --- |
| C[C@@H](NC(=O)c1c[nH]c2ncc(C3CC3)nc12)C(=O)N1CCCC1 [Example I-1, 2-Cyclopropyl-5H-pyrrolo[2,3-b]pyrazine-7-carboxylic acid ((R)-1-methyl-2-oxo-2-pyrrolidin-1-yl-ethyl)-amide] | 0.0516 |
| C[C@H](NC(=O)c1c[nH]c2ncc(C3CC3)nc12)C(=O)N1CCCC1 [Example I-6, 2-Cyclopropyl-5H-pyrrolo[2,3-b]pyrazine-7-carboxylic acid ((S)-1-methyl-2-oxo-2-pyrrolidin-1-yl-ethyl)-amide] | 3.04 |
| C[C@@H](NC(=O)c1c[nH]c2ncc(C3CC3)nc12)C(=O)N1CCC1 [Example I-17, 2-Cyclopropyl-5H-pyrrolo[2,3-b]pyrazine-7-carboxylic acid ((R)-2-azetidin-1-yl-1-methyl-2-oxo-ethyl)-amide] | 0.148 |

Second part, the compound after the results:

| IC50 [µM] | SMILES |
| --- | --- |
| ≤ 0.00032 | N#C[C@@H]1CCN(C(=O)[C@H](NC(=O)c2c[nH]c3ncc(C4CC4)nc23)C2CC2)C1 [Example I-83, 2-Cyclopropyl-5H-pyrrolo[2,3-b]pyrazine-7-carboxylic acid [(R)-2-((R)-3-cyano-pyrrolidin-1-yl)-1-cyclopropyl-2-oxo-ethyl]-amide] |
| 0.00035 | COc1cc(-c2cnc3[nH]cc(C(=O)N[C@H](C)C(=O)N4CC(C#N)C4)c3n2)cc(OC)c1OC [Example I-125, 2-(3,4,5-Trimethoxy-phenyl)-5H-pyrrolo[2,3-b]pyrazine-7-carboxylic acid [(R)-2-(3-cyano-azetidin-1-yl)-1-methyl-2-oxo-ethyl]-amide] |
| 0.00705 | C[C@@H](NC(=O)c1c[nH]c2ncc(C3CC3)nc12)C(=O)N1CC(C#N)C1 [Example I-20, 2-Cyclopropyl-5H-pyrrolo[2,3-b]pyrazine-7-carboxylic acid [(R)-2-(3-cyano-azetidin-1-yl)-1-methyl-2-oxo-ethyl]-amide] |
